Laboratory results: patent US9872849B2, “Diterpenoid membranolide compounds having anti-leishmania activity and uses thereof” (UNIVERSITY OF SOUTH FLORIDA, priority 2014, dated 2018)

Test system: L. donovani axenic amastigotes
Type: cell-based, Leishmania donovani
Method: Leishmaniasis efficacy was tested against L. donovani axenic amastigotes (amphotericin B, positive control=0.38 μM). Cytotoxicity was verified against Vero cells.

membranolide G
selectivity index (cytotoxicity/activity): high selectivity index

membranolide H
selectivity index (cytotoxicity/activity): high selectivity index
